According to patent publication US9650423B2, “Long peptides of 22-45 amino acid residues that induce and/or enhance antigen specific immune responses” (priority 2000, dated 2017):

System: AR5 tumor cells (E1A+Ras transformed mouse embryo cells)
Test: Vaccination and AR5 tumor challenge
Settings: for protection against tumor challenge: C57/B16 mice, adenovirus E1A+RAS transformed tumor cells; for survival at 50 days after tumor-challenge: n=8, s.c. in IFA day 1, 10 μg epitope or 30 μg 32-mer, 0.5×10^6 AR5 cells 14 days later

## RECNSSTDSCDSGPSNTPPEIHPVVRLCPIKP (RECNSSTDSCDSGPSNTPPEIHPVVRLCPIIKP; minimal CTL epitope of adenovirus E1A protein) [32 amino acid long peptide]
  protection against tumor challenge: resulted in protection
  survival at 50 days after tumor-challenge: all live at 50 days
n=8, 30 μg s.c. in IFA, AR5 challenge 14 days later
  mice lost during the 100 day follow-up: only one mouse is lost

## SGPSNTPPEI (minimal E1A-derived CTL epitope) [reference compound]
  protection against tumor challenge: enhanced tumor outgrowth
  survival at 50 days after tumor-challenge: all die within 50 days
